Laboratory results taken from PubChem BioAssay (NCI).
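All cell lines were grown in 96-well plates and treated with compound for 48 hours. TGI marks complete inhibition of growth.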

Key:
Assay in all cases: NCI anticancer screen, dose series, 48 h
SF-295 CNS = system: SF-295 CNS
NCI-H23 lung = system: NCI-H23 lung
SF-268 CNS = system: SF-268 CNS
SK-MEL-5 melanoma = system: SK-MEL-5 melanoma
EKVX NSCLC = system: EKVX NSCLC
MDA-MB-435 = system: MDA-MB-435
MDA-MB-231 breast = system: MDA-MB-231 breast
HOP-62 NSCLC = system: HOP-62 NSCLC
786-0 renal = system: 786-0 renal
ACHN renal = system: ACHN renal
OVCAR-3 ovarian = system: OVCAR-3 ovarian
HOP-92 NSCLC = system: HOP-92 NSCLC
PC-3 prostate = system: PC-3 prostate
LOX IMVI melanoma = system: LOX IMVI melanoma
NCI-H226 lung = system: NCI-H226 lung
HL-60(TB) leukemia = system: HL-60(TB) leukemia
CCRF-CEM leukemia = system: CCRF-CEM leukemia
UACC-257 melanoma = system: UACC-257 melanoma
SNB-19 CNS = system: SNB-19 CNS
SK-OV-3 ovarian = system: SK-OV-3 ovarian
TK-10 renal = system: TK-10 renal
A498 renal = system: A498 renal
SN12C renal = system: SN12C renal
IGROV1 ovarian = system: IGROV1 ovarian
MOLT-4 leukemia = system: MOLT-4 leukemia
DU-145 prostate = system: DU-145 prostate
HCT-116 colon = system: HCT-116 colon
MCF7 breast = system: MCF7 breast
HCT-15 colon = system: HCT-15 colon
OVCAR-4 ovarian = system: OVCAR-4 ovarian
COLO 205 colon = system: COLO 205 colon
HCC-2998 colon = system: HCC-2998 colon
CAKI-1 renal = system: CAKI-1 renal
RXF 393 renal = system: RXF 393 renal
NCI-H322M lung = system: NCI-H322M lung
OVCAR-5 ovarian = system: OVCAR-5 ovarian
HT29 colon = system: HT29 colon
KM12 colon = system: KM12 colon
SK-MEL-28 melanoma = system: SK-MEL-28 melanoma
SK-MEL-2 melanoma = system: SK-MEL-2 melanoma
MALME-3M melanoma = system: MALME-3M melanoma
SR leukemia = system: SR leukemia
U251 CNS = system: U251 CNS
SW-620 colon = system: SW-620 colon
UO-31 renal = system: UO-31 renal
RPMI-8226 leukemia = system: RPMI-8226 leukemia
MDA-N = system: MDA-N
UACC-62 melanoma = system: UACC-62 melanoma
BT-549 breast = system: BT-549 breast
NCI-H460 lung = system: NCI-H460 lung
NCI-H522 lung = system: NCI-H522 lung

Measured: TGI

[N-]=[N+]=CC(=O)OCCCN=[N+]=[N-]
> 100 µM: all assays above
